Molecular target: T1, human phosphodiesterase-3A (Homo sapiens, UniProt Q14432)
T1 construct: host or cells: Sf9 (Spodoptera frugiperda) cells
Assay: PDE3 Assay ([3H]cAMP to 5'AMP, SPA)
Assay type: biochemical
Settings: human recombinant PDE3A expressed in Sf9 cells; 450 nM cAMP; 20 min at 22° C.
Protocol: Evaluation of the effects of compounds on the activity of the human phosphodiesterase-3A is quantified by measuring the formation of 5′AMP from cAMP using a human recombinant is enzyme expressed in a clonal isolate of Spodoptera frugiperda cells (Sf9) cells.
The test compound, reference compound or water (control) are added to a buffer containing 40 mM tris(hydroxymethyl)aminomethane (Tris)/HCl (pH 7.4) and 8 mM MgCl2, 450 nMcAMP and 0.25 μCi [^3H]cAMP.
Thereafter, the reaction is initiated by addition of the enzyme (about 1U) and the mixture is incubated for 20 min at 22° C.
For basal control measurements, the enzyme is omitted from the reaction mixture.
Following incubation SPA beads are added. After 30 min at 22° C. under shaking, the amount of [^3H]5′AMP is quantified with a scintillation counter (Topcount, Packard).
The results are expressed as a percent inhibition of the control enzyme activity. The standard inhibitory reference compound is milrinone (CAS number 78415-72-2), which is tested in each experiment at several concentrations to obtain an inhibition curve from which its IC50 value is calculated.

Protein sequences, listed by entry. Tags and fused reporters are not part of them. Lines headed by an entry give the natural chain unless they say otherwise; changes in a name come on top.
UniProt Q14432: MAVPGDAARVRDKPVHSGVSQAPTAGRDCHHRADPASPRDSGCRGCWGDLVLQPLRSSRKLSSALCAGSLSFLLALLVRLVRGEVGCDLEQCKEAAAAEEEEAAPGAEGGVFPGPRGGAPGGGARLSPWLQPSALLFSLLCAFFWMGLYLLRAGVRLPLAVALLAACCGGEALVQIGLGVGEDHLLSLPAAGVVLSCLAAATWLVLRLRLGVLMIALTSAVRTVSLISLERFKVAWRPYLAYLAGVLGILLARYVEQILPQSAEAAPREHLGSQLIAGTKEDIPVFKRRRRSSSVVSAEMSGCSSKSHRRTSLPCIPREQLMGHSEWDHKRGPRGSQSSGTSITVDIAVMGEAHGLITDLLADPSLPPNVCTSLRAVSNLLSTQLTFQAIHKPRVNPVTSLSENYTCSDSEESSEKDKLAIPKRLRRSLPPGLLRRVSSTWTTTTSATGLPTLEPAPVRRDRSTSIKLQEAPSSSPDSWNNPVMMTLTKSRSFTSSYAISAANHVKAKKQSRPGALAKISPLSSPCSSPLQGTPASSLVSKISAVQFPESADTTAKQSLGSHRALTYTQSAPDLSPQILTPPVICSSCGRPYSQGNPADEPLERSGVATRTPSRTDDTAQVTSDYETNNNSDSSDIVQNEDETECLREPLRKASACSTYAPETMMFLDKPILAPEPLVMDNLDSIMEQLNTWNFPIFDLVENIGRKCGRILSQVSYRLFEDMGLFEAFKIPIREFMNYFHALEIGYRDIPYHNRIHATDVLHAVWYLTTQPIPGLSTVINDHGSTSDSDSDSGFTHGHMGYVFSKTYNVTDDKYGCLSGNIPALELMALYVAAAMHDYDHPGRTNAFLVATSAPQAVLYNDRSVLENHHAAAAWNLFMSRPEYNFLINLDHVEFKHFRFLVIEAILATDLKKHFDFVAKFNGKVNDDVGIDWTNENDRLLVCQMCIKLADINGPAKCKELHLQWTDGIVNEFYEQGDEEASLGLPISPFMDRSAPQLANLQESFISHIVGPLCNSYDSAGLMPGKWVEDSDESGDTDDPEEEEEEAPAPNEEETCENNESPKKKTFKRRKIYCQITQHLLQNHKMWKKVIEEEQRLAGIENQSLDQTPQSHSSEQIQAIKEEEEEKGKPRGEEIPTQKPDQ

IC50: > 74 µM
Structure (SMILES): COc1cc(C(=O)O)cc2c1nc(CN1CCN(c3cccc4c3O[C@@](C)(c3ccc(Cl)cc3F)O4)[C@H]3CC[C@@H]31)n2C[C@@H]1CCO1 (single isomer, unassigned) [Example 4a, 2-(((1R*,6R*)-5-((R*)-2-(4-Chloro-2-fluorophenyl)-2-methylbenzo[d][1,3]dioxol-4-yl)-2,5-diazabicyclo[4.2.0]octan-2-yl)methyl)-4-methoxy-1-(((S)-oxetan-2-yl)methyl)-1H-benzo[d]imidazole-6-carboxylic acid]

From US20240417393A1, “CERTAIN 2,5-DIAZABICYCLO[4.2.0]OCTANES AS GLP-1 RECEPTOR MODULATORS” (ASTRAZENECA AB, priority 2021, published 2024)
